Antibody variant affinities, Ab-14 light chain, assay B

Values reported by Li et al. 2023, doi:10.1038/s41467-023-39022-2 (FLAb copy).

Target peptide (SARS-CoV-2 spike, HR2 region): PDVDLGDISGINAS

The variants keep the heavy chain, the linker and the frameworks of Ab-14 (scFv order VH, the linker GGGGSGGGGSGGGGS, VL).
VH: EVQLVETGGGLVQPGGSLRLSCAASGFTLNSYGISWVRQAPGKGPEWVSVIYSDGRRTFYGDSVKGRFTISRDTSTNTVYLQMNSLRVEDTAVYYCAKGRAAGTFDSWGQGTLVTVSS
VL: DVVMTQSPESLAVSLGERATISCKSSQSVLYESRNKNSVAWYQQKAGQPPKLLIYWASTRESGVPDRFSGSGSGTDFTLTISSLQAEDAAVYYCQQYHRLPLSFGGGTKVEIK

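This is the validation round: designs drawn from the data on random variants, tested in the same kind of assay. Their group label is 14L_Ctrl (Ctrl: baseline library sampled from a position-specific scoring matrix, with some repeated check sequences). In AlphaSeq, yeast of one mating type display the scFv and yeast of the other type display the target. The frequency of each diploid, read from paired DNA barcodes, reflects how well the two displayed proteins bind. Each replicate has its own calibration line, from reference interactions of the BCL2 family. Mating was done six times.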

Substitutions are numbered in sequence along the VL above, starting at 1 (not Kabat). Scale: log10 of Kd in nM, estimated from mating counts; low values are strong binders. Where no diploid with the target was found in that replicate, the entry reads "nd": below detection, most likely a poor binder, though not proof of it.

changes	log10 Kd (nM) by replicate	signal with controls
N35T W56A S103C	0.35 / 0.01 / 0.23 / 0.07 / 0.07 / 0.71	0/18
W56Q L102N	nd / 1.07 / nd / nd / nd / nd	0/18
L30S S33E V39I	1.65 / 1.16 / 0.87 / 1.51 / 1.09 / 1.18	0/18
Y31K K36G	2.83 / nd / nd / nd / nd / nd	0/18
S28Q K36H	1.96 / 1.66 / 1.45 / nd / 1.46 / 2.21	1/18 (1.74)
L30T W56H T59L Y97K	1.71 / nd / nd / 1.88 / 2.01 / 1.83	0/18
V29W L30E Y31P L100K	nd / nd / nd / nd / 2.10 / 2.16	0/18
Y31Q R34M Q95P	nd / nd / nd / nd / nd / nd	0/18
S25L S26I K36C	nd / nd / nd / 1.33 / 3.18 / nd	0/18
K24I S25I L100N	1.39 / 1.23 / 1.15 / 1.75 / 1.91 / 1.61	1/18 (2.43)
S25L S33V Q96T L100M	1.07 / 1.63 / 1.59 / 1.43 / 1.32 / 0.77	0/18
Y31G T59E Q96A	1.22 / nd / 0.23 / 2.91 / 1.26 / 2.49	0/18
W56G A57R	0.87 / 0.60 / 0.71 / 0.90 / 0.72 / 0.83	2/18 (3.12)
V29M Y31S E32G S38H	nd / nd / nd / nd / nd / 2.58	1/18 (2.32)
Y31W S38H	nd / nd / nd / nd / nd / nd	1/18 (1.65)
S25L K36M	0.50 / 0.49 / 1.01 / 0.87 / 0.39 / 0.43	0/18
L30E W56G E61T Q95A H98S	0.90 / 0.87 / 0.83 / 0.67 / 0.97 / 1.34	1/18 (3.51)
S25M S33D R34D	nd / nd / nd / nd / nd / nd	0/18
R34T K36E W56D	0.46 / 0.09 / 0.39 / 0.59 / 0.52 / 0.72	1/18 (3.41)
S25M Y31P W56E	0.27 / 0.07 / -0.15 / -0.01 / 0.05 / -0.06	1/18 (1.84)
R34Y W56G S58Q S103A	nd / nd / nd / 2.74 / 2.94 / 2.80	0/18
R34A K36T	1.61 / 1.09 / 1.78 / 2.49 / 1.34 / 1.39	1/18 (1.79)
Y31W S33Y W56Q	1.18 / 1.68 / 1.50 / 1.65 / 0.92 / 1.10	0/18
S25Y Y31E V39I T59H S62H H98D	0.94 / 0.47 / 0.65 / 1.49 / 1.06 / 1.00; 1.16 / 1.06 / 1.08 / 0.89 / 1.04 / 0.76; 1.13 / 1.29 / 1.12 / 0.71 / 0.88 / 1.89; 1.30 / 1.30 / 1.01 / 1.55 / 1.15 / 1.35; 1.02 / 1.42 / 0.95 / 1.04 / 1.09 / 1.42	7/90 (2.40)
R34L K36A S58Y	nd / nd / nd / nd / nd / nd	0/18
K36H R60P L102V	nd / nd / nd / nd / nd / nd	0/18
V39E T59N	nd / 1.58 / nd / nd / nd / nd	0/18
S25D S28K R34F S58T S62T	nd / nd / nd / nd / nd / nd	0/18
S28T Y31E R60H L102N	nd / nd / nd / nd / nd / nd	1/18 (1.67)
V29W Y31E H98C	nd / nd / 3.19 / nd / 1.33 / nd	0/18
K24Q S25Y W56D S58N	0.36 / 0.10 / -0.05 / -0.36 / -0.05 / 0.07	0/18
S26R V29T W56S A57D S62Q	0.86 / 1.14 / 0.81 / 1.12 / 0.72 / 0.99	3/18 (2.29)
S26G R34E	1.98 / nd / 3.00 / 1.70 / nd / 2.09	0/18
Q27N L30N Y31T R34F N35H W56M H98A	0.62 / 1.24 / 0.78 / 0.74 / 0.96 / 0.73	0/18
L100F S103V	nd / nd / nd / nd / nd / nd	0/18
V29D V39H W56Q	nd / 0.32 / nd / 1.11 / 1.47 / 1.50	0/18

Top 5 of the variants detected in all replicates, tightest first:

{"changes": "K24Q S25Y W56D S58N", "log10 Kd (nM) by replicate": "0.36 / 0.10 / -0.05 / -0.36 / -0.05 / 0.07", "signal with controls": "0/18"}
{"changes": "S25M Y31P W56E", "log10 Kd (nM) by replicate": "0.27 / 0.07 / -0.15 / -0.01 / 0.05 / -0.06", "signal with controls": "1/18 (1.84)"}
{"changes": "N35T W56A S103C", "log10 Kd (nM) by replicate": "0.35 / 0.01 / 0.23 / 0.07 / 0.07 / 0.71", "signal with controls": "0/18"}
{"changes": "R34T K36E W56D", "log10 Kd (nM) by replicate": "0.46 / 0.09 / 0.39 / 0.59 / 0.52 / 0.72", "signal with controls": "1/18 (3.41)"}
{"changes": "S25L K36M", "log10 Kd (nM) by replicate": "0.50 / 0.49 / 1.01 / 0.87 / 0.39 / 0.43", "signal with controls": "0/18"}

The authors' rule: three or more of the six replicates give a measured affinity, fewer mean a poor binder. The parent sequence was in this pool as ten entries: three were never detected, three once, and four in most replicates, with averages from 0.34 to 2.37. Where one sequence has several entries in the source, the replicates are listed entry by entry, parted by semicolons. As a blank, each scFv also met three strains without target: over all light chain designs, 4% of these pairings were detected, typically at 2.64 and seldom below 1.59. For each scFv, signals with the empty controls are counted beside the result, with their mean in brackets. Values of this round are not directly comparable with the first-round values of the same sequences.